# According to ChEMBL document CHEMBL4219029, “Impact of Target Warhead and Linkage Vector on Inducing Protein Degradation: Comparison of Bromodomain and Extra-Terminal (BET) Degraders Derived from Triazolodiazepine (JQ1) and Tetrahydroquinoline (I-BET726) BET Inhibitor Scaffolds” (J Med Chem, 2018):
# Chains of the proteins cited; added tags and fusions are not shown.
# UniProt Q15059, whole entry, looked up: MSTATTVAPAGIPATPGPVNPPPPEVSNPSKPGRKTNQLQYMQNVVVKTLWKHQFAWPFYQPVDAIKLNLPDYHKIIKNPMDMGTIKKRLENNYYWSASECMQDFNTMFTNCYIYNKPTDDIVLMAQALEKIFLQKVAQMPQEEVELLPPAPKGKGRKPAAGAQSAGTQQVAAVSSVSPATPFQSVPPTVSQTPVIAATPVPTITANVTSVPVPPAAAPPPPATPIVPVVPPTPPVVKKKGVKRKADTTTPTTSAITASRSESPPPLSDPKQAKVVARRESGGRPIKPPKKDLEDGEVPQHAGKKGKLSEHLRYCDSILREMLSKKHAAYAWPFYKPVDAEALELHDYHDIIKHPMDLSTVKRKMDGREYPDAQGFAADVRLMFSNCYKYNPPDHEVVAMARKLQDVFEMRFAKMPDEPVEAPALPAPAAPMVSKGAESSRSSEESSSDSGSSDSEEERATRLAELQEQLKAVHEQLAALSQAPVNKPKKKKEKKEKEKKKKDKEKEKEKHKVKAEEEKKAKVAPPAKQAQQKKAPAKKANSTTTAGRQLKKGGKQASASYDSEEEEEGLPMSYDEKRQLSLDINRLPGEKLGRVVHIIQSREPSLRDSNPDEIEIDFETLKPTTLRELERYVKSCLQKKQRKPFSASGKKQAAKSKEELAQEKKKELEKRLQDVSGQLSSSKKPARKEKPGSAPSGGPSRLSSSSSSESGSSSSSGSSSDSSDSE
# UniProt P40337, whole entry, looked up: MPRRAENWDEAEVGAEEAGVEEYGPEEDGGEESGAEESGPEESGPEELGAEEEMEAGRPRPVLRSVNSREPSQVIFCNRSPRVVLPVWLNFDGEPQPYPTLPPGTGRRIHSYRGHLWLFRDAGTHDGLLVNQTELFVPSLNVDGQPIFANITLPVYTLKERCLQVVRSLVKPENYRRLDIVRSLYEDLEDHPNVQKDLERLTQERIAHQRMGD
# UniProt Q15369, whole entry, looked up: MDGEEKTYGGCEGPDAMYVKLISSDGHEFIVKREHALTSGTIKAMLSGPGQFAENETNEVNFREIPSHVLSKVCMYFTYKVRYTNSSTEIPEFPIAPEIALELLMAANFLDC
# UniProt P25440, whole entry, looked up: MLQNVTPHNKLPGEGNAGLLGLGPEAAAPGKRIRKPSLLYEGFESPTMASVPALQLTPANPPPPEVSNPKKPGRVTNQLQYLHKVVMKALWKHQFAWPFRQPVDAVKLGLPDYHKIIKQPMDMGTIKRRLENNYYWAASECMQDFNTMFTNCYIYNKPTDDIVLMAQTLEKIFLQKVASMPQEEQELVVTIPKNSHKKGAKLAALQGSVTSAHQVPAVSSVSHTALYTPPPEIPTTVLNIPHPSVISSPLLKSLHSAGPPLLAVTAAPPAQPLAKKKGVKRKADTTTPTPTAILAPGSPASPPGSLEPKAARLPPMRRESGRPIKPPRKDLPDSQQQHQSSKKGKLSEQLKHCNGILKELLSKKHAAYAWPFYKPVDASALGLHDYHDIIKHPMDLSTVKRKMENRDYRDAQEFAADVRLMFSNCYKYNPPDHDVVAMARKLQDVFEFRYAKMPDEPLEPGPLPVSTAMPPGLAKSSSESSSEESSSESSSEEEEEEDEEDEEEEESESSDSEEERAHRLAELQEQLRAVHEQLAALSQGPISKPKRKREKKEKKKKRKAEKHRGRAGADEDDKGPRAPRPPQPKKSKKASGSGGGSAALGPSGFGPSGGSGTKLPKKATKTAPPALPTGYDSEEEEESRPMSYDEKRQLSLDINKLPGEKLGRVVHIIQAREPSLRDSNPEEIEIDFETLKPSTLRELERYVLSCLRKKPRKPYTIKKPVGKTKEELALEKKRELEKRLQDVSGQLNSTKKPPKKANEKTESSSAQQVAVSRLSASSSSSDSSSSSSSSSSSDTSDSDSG
# Assays:
# Type in all cases: cell-based
# [1] = molecular target: T1, von Hippel-Lindau disease tumor suppressor/Bromodomain-containing protein 3/Elongin-B/Elongin-C (Homo sapiens, UniProt Q15059+P40337+Q15370+Q15369); assay: Proteolysis targeting chimera activity in human HeLa cells assessed as induction of VCB-mediated delivery of BRD3 for protein degradation by proteasome at 1 to 10 uM incubated for 24 hrs by Western blotting method
# [2] = molecular target: T2, von Hippel-Lindau disease tumor suppressor/Bromodomain-containing protein 2/Elongin-B/Elongin-C (Homo sapiens) (UniProt P25440+P40337+Q15370+Q15369); assay: Proteolysis targeting chimera activity in human HeLa cells assessed as induction of VCB-mediated delivery of BRD2 for protein degradation by proteasome at 1 to 10 uM incubated for 24 hrs by Western blotting method
# [3] = molecular target: T1, von Hippel-Lindau disease tumor suppressor/Bromodomain-containing protein 3/Elongin-B/Elongin-C; assay: Proteolysis targeting chimera activity in human HeLa cells assessed as induction of VCB-mediated delivery of BRD3 for protein degradation by proteasome at 1 to 10 uM incubated for 6 hrs by Western blotting method
# [4] = molecular target: T2, von Hippel-Lindau disease tumor suppressor/Bromodomain-containing protein 2/Elongin-B/Elongin-C (Homo sapiens); assay: Proteolysis targeting chimera activity in human HeLa cells assessed as induction of VCB-mediated delivery of BRD2 for protein degradation by proteasome at 1 to 10 uM incubated for 6 hrs by Western blotting method
# [5] = molecular target: T3, von Hippel-Lindau disease tumor suppressor/Bromodomain-containing protein 4 (Homo sapiens, UniProt O60885+P40337); assay: Proteolysis targeting chimera activity in human HeLa cells assessed as induction of VCB-mediated delivery of BRD4 short isoform for protein degradation by proteasome by measuring drug level causing 50% cellular protein depletion incubated for 24 hrs by Western blotting method
# [6] = molecular target: T3, von Hippel-Lindau disease tumor suppressor/Bromodomain-containing protein 4; assay: Proteolysis targeting chimera activity in human HeLa cells assessed as induction of VCB-mediated delivery of BRD4 long isoform for protein degradation by proteasome by measuring drug level causing 50% cellular protein depletion incubated for 24 hrs by Western blotting method
SMILES,Activity [1],Activity [2],Activity [3],Activity [4],Activity [5],Activity [6]
CC(=O)N1c2ccc(-c3ccc(C(=O)NCCOCCOCCOCC(=O)N[C@H](C(=O)N4C[C@H](O)C[C@H]4C(=O)NCc4ccc(-c5scnc5C)cc4)C(C)(C)C)cc3)cc2[C@H](Nc2ccc(Cl)cc2)C[C@@H]1C,inactive,inactive,inactive,inactive,–,–
Cc1ncsc1-c1ccc(CNC(=O)[C@@H]2C[C@@H](O)CN2C(=O)[C@@H](NC(=O)COCCOCCOCCOCCNC(=O)C[C@@H]2N=C(c3ccc(Cl)cc3)c3c(sc(C)c3C)-n3c(C)nnc32)C(C)(C)C)cc1,–,–,–,–,Dose-dependent effect,Dose-dependent effect

# Activity calls are given as the source filed them. No cut-off for these calls is given here.
